Results on six substances are retold here after patent publication WO2017102835A1.

For assay [1], the target named is IL-23 (human) (UniProt Q9NPF7). Put plainly: cell-based or functional assay.
The target in assay [2] is TNFa (human) (UniProt P01375). As to the kind of experiment: cell-based or functional assay.
Assay [3] deals with TNFa (human) (UniProt P01375). Put plainly: ELISA on immobilised biotinylated TNFa, anti-human-HRP detection; affinity from sigmoidal binding curve.
Assay [4] addresses IL-23 (human) (UniProt Q9NPF7). As to the kind of experiment: indirect IL-23 ELISA. (ELISA stands for enzyme-linked immunosorbent assay.)
Assay [5] has as its target IL-23 (human) (UniProt Q9NPF7). As to the kind of experiment: indirect ELISA: bispecific pre-incubated with IL-23, free IL-23 captured on immobilised sensor MB23_DI4_B2fC, anti-p40 detection; affinity from a quadratic equation.

In the assay with IL-23 (human) [1], CL_Ada-MB23_DI4 (bispecific antibody) registered an IC50, IL-23 inhibition assay (splenocyte assay; IL-17 production by mouse splenocytes) of 0.65 nM and a fold loss of potency against the N-terminal fusions, IL-23 inhibition assay (splenocyte assay) of 10 fold. In the assay with TNFa (human) [2], this substance displayed an IC50, TNFa inhibition assay (NF-kB activation assay, luciferase reporter cells) of 0.29 nM. A word on the Kd: it is the constant that tells how readily two partners part at equilibrium. Higher therefore signals weaker binding. As for “CL_Ada-MB23_DI4 (bispecific antibody; other documents disagree on this pair)”, the Kd was found to be 0.41 nM in the assay with TNFa (human) [3] and 4 nM in the assay with IL-23 (human) [5]. In the assay with IL-23 (human) [4], the fold drop in affinity against the N-terminal fusions was found to be 10 fold.

In the assay with IL-23 (human) [1], MB23_DI4-VH_Ada (bispecific antibody) returned an IC50, IL-23 inhibition assay (splenocyte assay; IL-17 production by mouse splenocytes) of 0.08 nM.

The substance “MB23_DI4-VH_Ada (bispecific antibody; other documents disagree on this pair)” displayed a Kd with IL-23 (human) [5] of 0.4 nM. Substance MB23_DI4-VL_Ada (bispecific antibody) had an IC50, IL-23 inhibition assay (splenocyte assay; IL-17 production by mouse splenocytes) with IL-23 (human) [1] of 0.05 nM. As to “MB23_DI4-VL_Ada (bispecific antibody; other documents disagree on this pair)”, the Kd with IL-23 (human) [5] was 0.4 nM. This lies in the sub-nanomolar range.
